Data published in patent publication US11638736B2, “Compositions for preventing or treating diseases or disorders associated with neuro-inflammation, neuro-apoptosis, or neuro- oxidative damage and uses thereof” (priority 2018, dated 2023).

Legend:
Type in all cases: in vivo, SD rats
[1] = tested on: IL-6; experiment: Western blotting of midbrain, MPTP-treated rats: IL-6
[2] = tested on: TNF-α; experiment: Western blotting of midbrain, MPTP-treated rats: TNF-α
[3] = tested on: p-IκB-α; experiment: Western blotting of midbrain, MPTP-treated rats: p-IκB-α; conditions: MPTP-intoxicated rats
[4] = tested on: iNOS; experiment: Western blotting of midbrain, MPTP-treated rats: iNOS; conditions: MPTP control rats

Row | Structure (SMILES) | increase in IL-6 level attenuated, compared to MPTP groups ([1]; MPTP rats, levodopa 10 mg/kg) [fold] | TNF-α protein activation induced by MPTP declined ([2]; MPTP rats, levodopa 10 mg/kg) [fold] | expression of p-IκB-α protein higher than sham group [3] [fold] | iNOS protein expression level higher than sham group [4] [fold] | expression level of IL-6 protein elevated, compared with sham operated rats ([1]; MPTP-intoxicated rats) [fold] | elevation in TNF-α protein expression level, compared with sham groups ([2]; MPTP-intoxicated rats) [fold]
1 | N[C@@H](Cc1ccc(O)c(O)c1)C(=O)O [Levodopa] | 1.6 | 1.7 | – | – | – | –
2 | CN1CC=C(c2ccccc2)CC1 [MPTP, 1-methyl-4-phenyl-1,2,3,6-tetrahydropyridine] | – | – | 4.1 | 8.0 | 6.8 | 1.7
